This note sets out measurements from paper PMC3280428 (Journal of Molecular Biology, 2011).

Amino acid sequences for entries named in this document (tags omitted). Residues count along the entry.
UniProt Q9H9B1, 1126-1243 limits assumed: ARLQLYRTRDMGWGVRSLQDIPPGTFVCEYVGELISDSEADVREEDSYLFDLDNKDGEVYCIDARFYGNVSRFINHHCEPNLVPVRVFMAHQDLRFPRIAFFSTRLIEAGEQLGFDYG

pIC50: −log10 of the molar value.

In this test the target is GLP (SET domain) (Homo sapiens, UniProt Q9H9B1). Kind of test: Methylation inhibition assay, GLP SET domain, H3 peptide. In kind it is biochemical.

A word on the pIC50: it is the IC50 on a negative log10 scale, so that one unit is a factor of ten. Higher therefore signals a low IC50. As to `COc1cc2nc(N3CCCN(C)CC3)nc(NC3CCN(Cc4ccccc4)CC3)c2cc1OC` [BIX-01294], the pIC50 was 6.60.
